Laboratory results published in article PMC5762728 (Scientific Reports, 2018).

Assays:
[1] = molecular target: T1, N-domain of bovine ACE (N-ACE) (Bos taurus, UniProt P12820); test: Inhibition of N-ACE hydrolysis of Aβ peptides by lisinopril; assay type: biochemical; settings: MALDI-TOF MS
T1 sequence (P12820 40-624 limits assumed): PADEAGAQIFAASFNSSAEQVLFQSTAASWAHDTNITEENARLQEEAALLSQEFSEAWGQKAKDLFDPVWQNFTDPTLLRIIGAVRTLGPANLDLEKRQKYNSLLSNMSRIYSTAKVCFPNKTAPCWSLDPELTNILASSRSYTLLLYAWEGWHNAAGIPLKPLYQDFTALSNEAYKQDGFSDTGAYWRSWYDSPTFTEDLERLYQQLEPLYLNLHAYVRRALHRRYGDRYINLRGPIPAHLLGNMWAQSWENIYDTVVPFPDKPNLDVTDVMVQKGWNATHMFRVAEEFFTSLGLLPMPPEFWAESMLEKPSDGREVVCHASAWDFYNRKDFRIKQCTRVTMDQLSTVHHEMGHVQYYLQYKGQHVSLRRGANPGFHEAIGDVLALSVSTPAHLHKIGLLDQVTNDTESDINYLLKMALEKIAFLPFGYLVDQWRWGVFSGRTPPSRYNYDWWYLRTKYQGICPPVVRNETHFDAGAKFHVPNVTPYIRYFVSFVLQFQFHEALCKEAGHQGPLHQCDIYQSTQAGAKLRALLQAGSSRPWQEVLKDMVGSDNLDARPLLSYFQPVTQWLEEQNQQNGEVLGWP

[2] = molecular target: T2, C-domain of bovine ACE (C-ACE) (Bos taurus, UniProt P12820); test: Inhibition of C-ACE hydrolysis of Aβ peptides by lisinopril; assay type: biochemical; settings: MALDI-TOF MS
T2 sequence (P12820 643-1222 limits assumed): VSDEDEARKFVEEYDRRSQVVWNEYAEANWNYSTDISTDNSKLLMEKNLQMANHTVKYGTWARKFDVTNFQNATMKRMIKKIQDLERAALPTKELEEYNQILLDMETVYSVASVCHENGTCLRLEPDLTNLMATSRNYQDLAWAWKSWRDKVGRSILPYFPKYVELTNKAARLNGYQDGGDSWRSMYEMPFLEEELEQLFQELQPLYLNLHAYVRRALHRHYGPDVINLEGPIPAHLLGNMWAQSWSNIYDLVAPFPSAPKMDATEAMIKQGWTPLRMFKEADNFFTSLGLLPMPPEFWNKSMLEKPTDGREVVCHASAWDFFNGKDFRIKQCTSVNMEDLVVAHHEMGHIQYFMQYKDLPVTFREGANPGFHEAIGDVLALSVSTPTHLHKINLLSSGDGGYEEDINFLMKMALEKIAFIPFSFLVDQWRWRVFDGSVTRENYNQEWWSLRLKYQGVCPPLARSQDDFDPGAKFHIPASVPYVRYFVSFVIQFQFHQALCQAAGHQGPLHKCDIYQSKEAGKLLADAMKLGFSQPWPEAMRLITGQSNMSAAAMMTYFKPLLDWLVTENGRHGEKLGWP

[3] = molecular target: T1, N-domain of bovine ACE (N-ACE); test: Hydrolysis of Aβ metal-binding-domain peptides by N-ACE, products identified/quantified by MALDI-TOF MS; settings: 20 μM peptide, 60 min; Arg13-His14 cleavage; MALDI-TOF MS with 18O-labeled internal standards

Molecule | Effect of lisinopril on N-ACE hydrolysis of Aβ(1-16)-[Amide] and [Acetyl]-Aβ(1-16)-[Amide] ([1]; lisinopril 10 μM) | Effect of lisinopril on N-ACE hydrolysis of [Acetyl]-ratAβ(1-16)-[Amide] ([1]; lisinopril) | Effect of lisinopril on C-ACE hydrolysis of [Acetyl]-ratAβ(1-16)-[Amide] [2] | Amount of [Acetyl]-ratAβ(1-13) formed from [Acetyl]-ratAβ(1-16)-[Amide] by N-ACE relative to C-ACE [3]
NCCCC[C@H](N[C@@H](CCc1ccccc1)C(=O)O)C(=O)N1CCC[C@H]1C(=O)O [lisinopril] | complete inhibition of hydrolysis | complete inhibition of hydrolysis | complete inhibition of hydrolysis | 
Ac-DAEFGHDSGFEVRHQK-NH2 [[CH3CO]-Asp-Ala-Glu-Phe-Gly^5-His-Asp- Ser-Gly- Phe^10-Glu-Val-Arg-His-Gln^15-Lys-[NH2]] |  |  |  | 4–4.5 times
